pKi: −log10 of the molar value.
Target: Orexin receptor type 2 (Homo sapiens, UniProt O43614)
Assay: Antagonist activity against human orexin 2 receptor after 1 hr by Ca2+ sensitive Fluo4-AM fluorescent dye-based FLIPR assay
Type: functional

Protein sequences, listed by entry. Tags and fused reporters are not part of them.
UniProt O43614, whole entry: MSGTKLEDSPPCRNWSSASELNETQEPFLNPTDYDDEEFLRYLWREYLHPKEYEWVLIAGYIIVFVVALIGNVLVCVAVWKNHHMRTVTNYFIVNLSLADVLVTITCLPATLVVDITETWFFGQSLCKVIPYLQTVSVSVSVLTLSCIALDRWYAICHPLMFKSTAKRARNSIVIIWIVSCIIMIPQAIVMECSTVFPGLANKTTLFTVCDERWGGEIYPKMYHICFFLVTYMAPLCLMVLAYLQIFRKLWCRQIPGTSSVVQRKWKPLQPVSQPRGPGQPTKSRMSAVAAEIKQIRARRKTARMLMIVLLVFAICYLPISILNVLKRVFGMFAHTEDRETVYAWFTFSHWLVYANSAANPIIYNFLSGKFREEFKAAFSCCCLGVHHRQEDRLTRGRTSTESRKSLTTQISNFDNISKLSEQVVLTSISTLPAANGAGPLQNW

pKi: < 5.70
SMILES: Cc1n[nH]c(C)c1[C@@H](C)NC(=O)COc1cc(C(F)(F)F)c2c(-c3ccccc3)nn(C)c2n1

Source: ChEMBL document CHEMBL3632504, “Discovery of 1H-pyrazolo[3,4-b]pyridines as potent dual orexin receptor antagonists (DORAs)” (Bioorg Med Chem Lett, 2015)
